This test addresses Amine oxidase [flavin-containing] A (Homo sapiens, UniProt P21397). As to the kind of experiment: Inhibition of MAOA (unknown origin) using kynuramine as substrate after 1 hr by fluorescence assay. The procedure, abridged:
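Commercial MAO-A or MAO-B enzyme was used at 1:100 dilution with inhibitor in DMSO in PBS pH 7.4 (4.4 mM KH2PO4, 45 mM Na2HPO4, 100 mM NaCl). Reaction was started with kynuramine (500 µM DMSO stock added). After 1 h at 37 °C it was stopped with 2 M NaOH, and fluorescence was read (ex 330, em 390 nm).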

The chains behind the UniProt entries cited, without tags or fusion partners.
UniProt P21397, whole entry: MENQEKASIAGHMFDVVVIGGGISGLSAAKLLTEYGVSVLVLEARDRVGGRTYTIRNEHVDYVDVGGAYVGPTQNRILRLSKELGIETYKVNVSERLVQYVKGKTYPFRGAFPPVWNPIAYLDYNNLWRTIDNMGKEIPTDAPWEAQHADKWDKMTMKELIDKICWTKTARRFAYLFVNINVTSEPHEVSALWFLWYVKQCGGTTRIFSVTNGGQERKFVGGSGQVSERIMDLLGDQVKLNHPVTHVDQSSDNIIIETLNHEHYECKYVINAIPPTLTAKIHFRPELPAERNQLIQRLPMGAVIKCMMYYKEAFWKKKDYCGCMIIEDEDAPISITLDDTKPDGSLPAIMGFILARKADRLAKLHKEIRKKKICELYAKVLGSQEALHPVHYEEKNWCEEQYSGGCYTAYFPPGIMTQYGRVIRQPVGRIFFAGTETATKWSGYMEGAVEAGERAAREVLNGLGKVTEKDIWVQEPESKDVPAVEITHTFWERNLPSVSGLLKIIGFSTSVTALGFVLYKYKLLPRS

Usually IC50 stands for the midpoint of a concentration-inhibition curve. A lower IC50 goes with inhibition by little substance. Turning to `C#CCN(C)Cc1ccccc1` [PARGYLINE], half-maximal inhibition (IC50) was put at 3.39 µM.

Source of the values: ChEMBL document CHEMBL2424529, “Nonpeptidic propargylamines as inhibitors of lysine specific demethylase 1 (LSD1) with cellular activity” (J Med Chem, 2013).
